This passage reports IC50 results from patent publication US20250388602A1 (Genase Therapeutics B.V., priority 2022, published 2025).

Chains of the proteins cited; added tags and fusions are not shown.
UniProt Q02127, whole entry: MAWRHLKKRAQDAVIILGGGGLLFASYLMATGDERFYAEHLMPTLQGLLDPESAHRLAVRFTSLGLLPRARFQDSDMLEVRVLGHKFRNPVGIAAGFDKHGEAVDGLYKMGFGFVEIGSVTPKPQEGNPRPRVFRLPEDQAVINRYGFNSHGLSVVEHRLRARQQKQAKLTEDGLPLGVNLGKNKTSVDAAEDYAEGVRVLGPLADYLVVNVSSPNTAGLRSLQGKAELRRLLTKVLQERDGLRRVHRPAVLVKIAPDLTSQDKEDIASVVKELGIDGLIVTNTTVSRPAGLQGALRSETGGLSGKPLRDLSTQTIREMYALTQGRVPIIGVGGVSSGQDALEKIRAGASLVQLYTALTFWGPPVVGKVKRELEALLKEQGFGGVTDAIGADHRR

Assay [1] deals with MOLM-13 cells. As to the kind of experiment: MOLM-13 cell viability (Assay B), Cell Titer-Glo. To be noted: read-out: IC50 MOLM13 inhibition activity. The assay is classed as cell-based. The method, then: MOLM-13 cells (an acute myeloid leukemia cell line) were plated in RPMI supplied with 10% FBS and 1% Pen/Strep in 384-well plates at 1,000 cells per well on day 0. On day 1, treatment of the cells with compound (concentration range 10E-5 and 6E-12 M) was initiated in the presence or absence of 100 μM uridine. After 72 hours incubation of the cells with or without test compound, the number of viable cells per well was assessed by Cell Titer-Glo Luminescent Cell Viability Assay (Promega, Madison, WI, USA). […] Each condition was tested in duplicate and the potency of test compounds was determined from two independent experiments.
On the technique in general: ATP-based viability assays read luminescence as a measure of living cells.

The target in assay [2] is recombinant human DHODH (Homo sapiens (Human), UniProt Q02127). As to the kind of experiment: DHODH enzyme assay (Assay A), DCIP absorbance. The assay is classed as biochemical. To be noted: read-out: IC50 DHODH inhibition activity.

Molecules are shown by their SMILES.

For `COc1cccc(-n2ncc3c2COC[C@H]3NC(=O)c2ncc3n2CCCC3)c1Cl`, the IC50 in assay [1] and in assay [2] was < 10 nM each time.

In general, IC50 refers to the concentration that inhibits the measured activity by half.
